# Test results published in PubChem BioAssay AID2544 (Sanford-Burnham Center for Chemical Genomics, 2010).
# Chains of the proteins cited; added tags and fusions are not shown. Lines headed by an entry give the natural chain unless they say otherwise; changes in a name come on top.
# UniProt P09923: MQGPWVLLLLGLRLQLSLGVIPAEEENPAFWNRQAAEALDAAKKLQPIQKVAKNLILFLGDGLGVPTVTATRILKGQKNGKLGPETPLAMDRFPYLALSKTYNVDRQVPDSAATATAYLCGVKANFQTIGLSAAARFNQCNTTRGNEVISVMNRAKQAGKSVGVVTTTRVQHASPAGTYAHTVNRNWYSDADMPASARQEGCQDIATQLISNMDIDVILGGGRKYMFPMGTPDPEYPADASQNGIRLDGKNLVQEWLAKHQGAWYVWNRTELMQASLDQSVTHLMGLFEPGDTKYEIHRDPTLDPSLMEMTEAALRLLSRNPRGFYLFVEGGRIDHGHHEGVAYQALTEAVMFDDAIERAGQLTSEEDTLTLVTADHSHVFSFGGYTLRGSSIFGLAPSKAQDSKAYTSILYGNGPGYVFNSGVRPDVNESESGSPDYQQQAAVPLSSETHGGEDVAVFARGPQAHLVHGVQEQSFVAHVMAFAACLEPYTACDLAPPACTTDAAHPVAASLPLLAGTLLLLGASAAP
# The list shows a part of the results, in another mix than the full data. Active and inactive are the calls of the source.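 How the source made its calls: active means inhibition reaching a set limit with compound at 10 µM in the primary screen (cut at about 35% in these data); inactive means the rest.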
# Target: Intestinal-type alkaline phosphatase (Homo sapiens) (UniProt P09923)
# Experiment: blockers of intestinal alkaline phosphatase activity – biochemical, luminescence, uHTS, primary screen (AID 2544);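 further: plate controls were DMSO wells with enzyme for no effect and no-enzyme buffer wells for full effect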
# Settings: purified IAP, CDP-Star luminescence, 30 min; at 10 µM; hits give high values
row,SMILES,inhibition
1,Nc1ccc([As](=O)(O)c2ccc(N)cc2)cc1,inactive: 0.8%
2,C[N+]1=C2C=CC=CC=C2SC12C([N+](=O)[O-])=CC([N+](=O)[O-])=C[C-]2[N+](=O)[O-] (centres undefined),inactive: -17.5%
3,CCN(/C(=N/P(=O)(N1CCOCC1)N1CCOCC1)N1CCOCC1)c1ccc(OC)cc1,inactive: 4.9%
4,CC(C)=N/N=C(\N)N[N+](=O)[O-],inactive: -16.5%
5,CN(C)C(=O)OCCc1n(C)cc[n+]1C,inactive: 1.5%
6,CC1CCN(C(=O)Oc2c(Cl)cc(Cl)c3cccnc23)CC1,inactive: 13.4%
7,O=C(Nc1cc([As](=O)(O)O)ccc1O)c1ccccc1,inactive: 21.5%
8,CC(C)(C)C(=O)NC(Sc1ccncn1)C(Cl)(Cl)Cl (centres undefined),inactive: -10.1%
9,O=[N+]([O-])c1ncn(CCn2ncnc2[N+](=O)[O-])n1,inactive: -2.9%
10,O=[N+]([O-])c1cccc(NC2=NCC(CBr)S2)c1 (centres undefined),inactive: 9.5%
11,O=P(Nc1ccccn1)(c1ccc(Br)cc1)c1ccc(Br)cc1,inactive: -10.8%
12,CN(C)C1(CNC(=O)c2ccc(Cl)c(S(N)(=O)=O)c2)CCCCC1,inactive: 22.9%
13,O=P(Nc1nc2ccccc2s1)(c1ccccc1)c1ccccc1,inactive: -0.8%
14,C[C@H]1OP(=O)(Oc2ccccc2)[C@H](O)[C@H](O)[C@H]1N=[N+]=[N-] (some centres undefined),inactive: -0.9%
15,O=[N+]([O-])c1ncn(CCn2cnc([N+](=O)[O-])n2)n1,inactive: -0.4%
16,O=[As](O)(c1ccccc1)c1ccc(O)cc1,inactive: -7.3%
17,Nc1ccc([As](=O)(O)c2ccc([N+](=O)[O-])cc2)cc1,inactive: 3.4%
18,C(Cc1nn[nH]n1)Cc1nn[nH]n1,inactive: 3%
19,O=C(OC1CN2CCC1CC2)c1cccc(Cl)c1 (centres undefined),inactive: -4.8%
20,CC(C)C(=O)NC(Sc1ccccc1)C(Cl)(Cl)Cl (centres undefined),inactive: 4%
21,O=P(Nc1nccs1)(c1ccccc1)c1ccccc1,inactive: -3.9%
22,c1nnnn1CCn1cnnn1,inactive: -4.2%

row,SMILES,inhibition
1,O=P1(Nc2nc3ccc(Cl)cc3s2)COc2ccccc2O1 (centres undefined),inactive: -4%
2,CCOc1ccc(C2=NCC(CBr)S2)cc1 (centres undefined),inactive: 3.5%
3,CC(C)(C)C(=O)NC(Sc1ccccc1)C(Cl)(Cl)Cl (centres undefined),inactive: 3.5%
4,CC(=O)c1ccc(N2CC2c2ccncc2)cc1 (centres undefined),inactive: 26%
5,Cc1ccccc1CN(C)C(=O)COC(=O)C(O)(c1ccccc1)c1ccccc1,inactive: 3.3%
6,C[C@@H]1C=CCP(=O)(Oc2ccccc2)O1 (some centres undefined),inactive: -4.3%
7,C[C@H]1OP(=O)(Oc2ccccc2)C[C@@H]2O[C@@H]21 (some centres undefined),inactive: 4.7%
8,CC(=O)Nc1ccc([As](=O)(O)O)c(O)c1,inactive: -12.1%
9,CC(=O)Nc1ccc(Oc2c([N+](=O)[O-])cc([N+](=O)[O-])cc2[N+](=O)[O-])cc1,inactive: -2.9%
10,CCNC(=S)/N=C(\N)N[N+](=O)[O-],inactive: 7.1%
11,O=C(NC1CCS(=O)(=O)C1)NP(=S)(Oc1ccccc1)Oc1ccccc1 (centres undefined),inactive: 3.1%
12,c1ccc(-c2nn[nH]n2)c(-c2nn[nH]n2)c1,inactive: -9.2%
13,CCOC(=O)NC(Sc1ccccc1)C(Cl)(Cl)Cl (centres undefined),inactive: 16.4%
14,Cc1ccc(NP(=O)(Oc2cccc(C)c2)Oc2cccc(C)c2)nc1,inactive: -18.2%
15,COC(=O)c1cc2c(s1)N=C(c1ccccc1)N(C)P2(=O)N1CCOCC1 (centres undefined),inactive: -5.4%
16,Cc1ccc(OP(=O)(Nc2ccccn2)Oc2ccc(C)cc2)cc1,inactive: -8.8%
17,CC(=O)NC(SC(=S)N(CC(C)C)CC(C)C)C(Cl)(Cl)Cl (centres undefined),inactive: -29.4%
18,O=C(OC1CN2CCC1CC2)c1ccccc1 (centres undefined),inactive: -9.3%
19,CCC(=O)N1C2C3N(C(=O)CC)C1C1N(C(=O)CC)C(C(N1C(=O)CC)N3C(=O)CC)N2C(=O)CC,inactive: -5.7%
20,Cc1ccccc1OP(=O)(Nc1ccccn1)Oc1ccccc1C,inactive: -10.4%
21,CC(NC(=O)COC(=O)C(O)(c1ccccc1)c1ccccc1)c1ccccc1 (centres undefined),inactive: 2.7%
22,CN(C)C(=O)Oc1noc2ccccc12,inactive: 9.5%
